Assays:
[1] = test system: enteric pathogens (E. coli, Salmonella, Listeria monocytogenes, Klebsiella); experiment: Bacterial growth panel, OD600 growth-curve AUC ratio (heat map); assay type: cell-based; conditions: 40 mM (BA, EBA, PBA), 20 mM (BBA), 10 mM (PeBA), 5 mM (HBA, SBA), 1 mM (OBA), 0.5 mM (DBA), 2 mM (DoDBA), 20 mM (FMPBA); 24-48 hrs
[2] = test system: Gram Positive aerobes and probiotic species (Lactobacillus, Bifidobacteria); experiment: Bacterial growth panel, impact on non-target species (selectivity); assay type: cell-based; conditions: same concentrations as growth panel

CCCB(O)O [PBA]
antibacterial activity / potency against enteric pathogens (growth, AUC+test compound:AUC−test compound) [1]: higher potency against enteropathogens | selectivity: impact on Gram Positive aerobes and probiotic species [2]: less impact on probiotic Lactobacillus, Bacillus, and Gram Positive aerobes
